{"source": "patent US9295682B2", "about": "“Adjuvant immunotherapy for the preventive, curative or palliative treatment of chronic systemic diseases such as cancer, of clinical manifestations associated with diseases like cachexia and correction of adverse effects of drugs such as immunosuppression, neutropenia and lymphopenia, comprising …” (priority 2009, dated 2016)", "system": "Lewis lung carcinoma (3LL)", "test": "Lewis lung carcinoma (3LL) survival, 1st experiment (Table A)", "format": "in vivo, C57B1/6 female mice", "conditions": "100 days; IM-2 0.5 mg/kg/day alone, IM-2 0.5 mg/kg + Il-2 0.05 μg/animal, or IL-2 0.1 μg/animal alone; i.p., 3 weekly cycles", "procedure": "Treatments: All treatments began 24 hours after the inoculation of cancer cells.\nObservation period: The animals were evaluated during an observation period of 100 days in the survival experiment.\nTwo batches of 20 mice (C57BL/6) each one, inoculated with 3 LL cells (6×10^5 cells/animal) were treated only with daily intraperitoneal injections of the biological response modifier (proteic aggregate of ammonium and magnesium phospholinoleate-palmitoleate anhydride), as follows: 5.0 mg/kg/daily dose (Table A—Group 1—IM-1) and 0.5 mg/kg/daily dose (Table A—Group 2—IM 2), applied in three 3 weekly cycles. The animals were followed up for 100 days.\nThe animals were followed up for 100 days.\nThe animals were followed up for 100 days, and the number of survivors was expressed in percentage.", "data": [{"substance": "Interleukin 2 (IL-2)", "values": [{"measurement": "% Survivors", "result": 50, "unit": "%"}]}]}
